From patent US20170157260A1, “Glycosylated Polypeptide and Drug Composition Containing said Polypeptide” (Glytech, Inc., priority 2011, published 2017) come the findings set out here.

Protein sequences, listed by entry. Tags and fused reporters are not part of them. Lines headed by an entry give the natural chain unless they say otherwise; changes in a name come on top.
UniProt P31391: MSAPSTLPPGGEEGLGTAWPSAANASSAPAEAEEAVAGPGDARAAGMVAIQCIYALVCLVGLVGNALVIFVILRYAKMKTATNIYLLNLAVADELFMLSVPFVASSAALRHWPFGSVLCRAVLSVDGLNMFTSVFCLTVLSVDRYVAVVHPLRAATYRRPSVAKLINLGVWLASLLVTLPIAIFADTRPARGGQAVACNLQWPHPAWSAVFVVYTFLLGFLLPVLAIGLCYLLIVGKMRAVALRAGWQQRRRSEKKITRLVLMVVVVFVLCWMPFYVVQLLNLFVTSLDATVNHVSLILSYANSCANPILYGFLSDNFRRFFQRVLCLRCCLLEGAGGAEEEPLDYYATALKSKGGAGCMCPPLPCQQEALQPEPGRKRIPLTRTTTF
UniProt P30874: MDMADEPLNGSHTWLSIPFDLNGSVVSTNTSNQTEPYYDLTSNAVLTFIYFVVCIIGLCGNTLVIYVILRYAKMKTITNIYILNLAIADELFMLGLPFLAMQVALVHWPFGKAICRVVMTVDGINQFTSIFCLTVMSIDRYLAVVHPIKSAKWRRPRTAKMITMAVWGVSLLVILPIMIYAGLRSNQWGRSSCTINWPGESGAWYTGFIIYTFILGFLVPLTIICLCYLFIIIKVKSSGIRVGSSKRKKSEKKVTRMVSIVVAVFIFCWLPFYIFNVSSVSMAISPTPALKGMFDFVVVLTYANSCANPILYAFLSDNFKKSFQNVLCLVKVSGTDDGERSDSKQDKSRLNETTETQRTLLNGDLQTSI
UniProt P32745: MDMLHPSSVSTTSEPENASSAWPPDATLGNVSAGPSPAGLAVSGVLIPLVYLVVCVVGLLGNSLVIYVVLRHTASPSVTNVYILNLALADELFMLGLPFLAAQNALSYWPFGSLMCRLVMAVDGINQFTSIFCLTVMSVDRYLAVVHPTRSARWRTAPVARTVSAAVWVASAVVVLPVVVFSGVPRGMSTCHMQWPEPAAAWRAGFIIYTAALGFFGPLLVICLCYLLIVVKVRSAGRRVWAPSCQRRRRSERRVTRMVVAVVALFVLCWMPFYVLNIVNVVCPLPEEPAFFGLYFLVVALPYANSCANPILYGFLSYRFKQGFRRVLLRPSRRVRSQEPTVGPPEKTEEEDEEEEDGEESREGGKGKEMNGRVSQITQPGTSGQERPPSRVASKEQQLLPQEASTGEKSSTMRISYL
UniProt P30872: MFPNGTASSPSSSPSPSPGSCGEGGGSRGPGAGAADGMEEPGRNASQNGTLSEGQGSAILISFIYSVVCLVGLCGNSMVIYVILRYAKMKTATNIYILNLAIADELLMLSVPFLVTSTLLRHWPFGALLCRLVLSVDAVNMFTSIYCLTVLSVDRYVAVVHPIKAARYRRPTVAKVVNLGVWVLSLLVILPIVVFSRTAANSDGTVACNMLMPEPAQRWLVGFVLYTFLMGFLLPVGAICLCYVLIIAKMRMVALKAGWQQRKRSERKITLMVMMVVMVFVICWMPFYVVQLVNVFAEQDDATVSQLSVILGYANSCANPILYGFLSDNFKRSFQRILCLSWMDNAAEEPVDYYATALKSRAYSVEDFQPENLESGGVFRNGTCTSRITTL
UniProt P35346: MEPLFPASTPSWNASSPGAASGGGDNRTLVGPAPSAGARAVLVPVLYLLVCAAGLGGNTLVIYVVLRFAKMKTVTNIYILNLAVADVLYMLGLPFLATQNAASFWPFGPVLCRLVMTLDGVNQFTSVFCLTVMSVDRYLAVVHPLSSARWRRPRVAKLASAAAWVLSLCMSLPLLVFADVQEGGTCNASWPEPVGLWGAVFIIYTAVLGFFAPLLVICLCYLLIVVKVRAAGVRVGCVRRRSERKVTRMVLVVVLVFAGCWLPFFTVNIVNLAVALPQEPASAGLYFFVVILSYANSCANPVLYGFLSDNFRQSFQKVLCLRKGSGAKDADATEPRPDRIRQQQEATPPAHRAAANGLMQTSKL

In general, IC50 refers to the point on the concentration scale where inhibition reaches its midpoint. What is called Ki is a measure of affinity in units of concentration, obtained from inhibition or displacement.

Like-named read-outs stand apart in the source and are kept apart here.

Series [1] deals with T1, SSTR4 (Homo sapiens, UniProt P31391). As to the kind of experiment: Competitive binding assay, SSTR4. The note with it: Table 3B, Example 67-2, competitive binding assay.
Series [2] has as its target T1, SSTR4. As to the kind of experiment: Agonist activity evaluation (cAMP production suppression), SSTR4 receptor expression cells. The series is classed as cell-based. On the technique in general: Cyclic AMP is a second messenger, typically raised through Gs and lowered through Gi signalling.
Series [3] addresses T2, SSTR2 (Homo sapiens, UniProt P30874). The series can be described thus: Agonist activity evaluation (cAMP production suppression), SSTR2 receptor expression cells. The series is classed as cell-based. More on the design: host or cells: CHO-K1 cells.
Series [4] has as its target T3, SSTR3 (Homo sapiens, UniProt P32745). As to the kind of experiment: Agonist activity evaluation (cAMP production suppression), SSTR3 receptor expression cells. More on the design: host or cells: CHO-K1 cells. The series is classed as cell-based.
Series [5] has as its target T4, SSTR1 (Homo sapiens, UniProt P30872). As to the kind of experiment: Competitive binding assay, SSTR1. The note with it: for IC50: read-out: SSTR1 IC50.
In series [6] the target is T2, SSTR2. The series can be described thus: Competitive binding assay, SSTR2. The note with it: Table 3B, Example 67-2, competitive binding assay; for IC50: read-out: SSTR2 IC50.
The target of series [7] is T3, SSTR3. As to the kind of experiment: Competitive binding assay, SSTR3. The note with it: Table 3B, Example 67-2, competitive binding assay; for IC50: read-out: SSTR3 IC50.
For series [8], the target named is T5, SSTR5 (Homo sapiens, UniProt P35346). The series can be described thus: Competitive binding assay, SSTR5. The note with it: Table 3B, Example 67-2, competitive binding assay.
A short description of series [9]: Pharmacokinetics test with rats (intravenous and subcutaneous administration). The note with it: rats; for Intravenous administration AUC / Intravenous administration C0 / Intravenous administration MRT / Intravenous administration T1/2 / Subcutaneous administration AUC / Subcutaneous administration Cmax / Subcutaneous administration MRT / Subcutaneous administration T1/2 / BA: Tables 5B-5F (Examples 73-84); for BA: subcutaneous vs intravenous.

For series [10], the target named is T4, SSTR1. As to the kind of experiment: Agonist activity evaluation (cAMP production suppression), SSTR1 receptor expression cells. The note with it: Table 3D, Example 67-3; read-out: IC50 of cAMP production suppressing action (agonist activity), SSTR1. In kind it is cell-based.
For series [11], the system named is growth hormone (GH) production. As to the kind of experiment: GH production suppression test with rats. The series is classed as in vivo. The note with it: Table 8 (Example 87), dose 10 nmol/kg, vehicle 1012.
In series [12] the target is T5, SSTR5. The series can be described thus: Agonist activity evaluation (cAMP production suppression), SSTR5 receptor expression cells. The series is classed as cell-based. More on the design: host or cells: CHO-K1 cells. The note with it: Table 3D, Example 67-3; read-out: IC50 of cAMP production suppressing action (agonist activity), SSTR5.
Setting [13] is: Table 3B, Example 67-2, competitive binding assay.
[14] abbreviates: read-out: SSTR1 Ki, Table 3B, Example 67-2, competitive binding assay.

In the case of 3C(disialo)-R-K-SRIF14 [Example 49], in [1], the half-maximal inhibitory concentration (IC50) is over 100 nM and the Ki is over 90 nM. Moreover, the IC50 in [2] (Table 3E, Example 67-4, read-out: IC50 of the agonist activity, SSTR4) was 1.6 nM. Besides, in [3] (Table 3E, Example 67-4, read-out: IC50 of the agonist activity, SSTR2), the IC50 worked out at 1.4 nM. In series [4] (Table 3E, Example 67-4, read-out: IC50 of the agonist activity, SSTR3), the IC50 was determined as 3.8 nM. In addition, in series [5] (read-out: Ki value against SSTR1, Example 67-2 (text on Table 3B)), the Ki was determined as 270 nM. For the same substance, the IC50 in [5] (setting [13]) came to 270 nM. Moreover, the Ki in series [5] (setting [14]) stood at 230 nM. The IC50 in series [6] amounted to 32 nM. Further, the IC50 in series [7] was 40 nM. Besides, the half-maximal inhibitory concentration (IC50) in series [8] (read-out: SSTR5 IC50) worked out at 41 nM. In [9] (administered intravenously), the “extension of t1/2 compared to the non-glycosylated form (SRIF28 or SRIF14)” value is reported as 71 folds and the “increase of AUC compared to the non-glycosylated form (SRIF28 or SRIF14)” value stood at 36 folds. In [9], the “Intravenous administration AUC” value was 4288 nM·min, the “Intravenous administration C0” value was 1013 nM, the “Intravenous administration MRT” value worked out at 22.2 min and the “Intravenous administration T1/2” value is recorded as 35.7 min. Further, in series [9], the “Subcutaneous administration AUC” value turned out to be 3515 nM·min, the “Subcutaneous administration Cmax” value is given as 23.5 nM, the “Subcutaneous administration MRT” value stood at 112 min and the “Subcutaneous administration T1/2” value is 70.6 min. This substance also came in with a BA in series [9] of 82%.
As to S1C(disialo(amide))-SRIF28 [Example 58], the IC50 was 2.4 ± 1.7 nM in series [10]; 0.043 ± 0.023 nM in series [2] (Table 3D, Example 67-3, read-out: IC50 of cAMP production suppressing action (agonist activity), SSTR4); 0.055 ± 0.013 nM in series [3] (Table 3D, Example 67-3, read-out: IC50 of cAMP production suppressing action (agonist activity), SSTR2); 0.14 ± 0.06 nM in [4] (Table 3D, Example 67-3, read-out: IC50 of cAMP production suppressing action (agonist activity), SSTR3); 0.043 ± 0.015 nM in series [12]; 5.09 nM in series [5] (setting [13]). In addition, the IC50 in series [6] was determined as 0.207 nM; in [7] it was 1.53 nM. Moreover, the “GH” value in series [11] was 14 ng/mL. Further, the Ki in [5] (setting [14]) was found to be 4.21 nM; in series [6] (read-out: SSTR2 Ki) it was 0.11 nM; in [7] (read-out: SSTR3 Ki), 0.522 nM; in series [8] (read-out: SSTR5 Ki), 1.47 nM. Further, in series [9], the “Intravenous administration AUC” value came to 5814 nM·min. Also, the “Intravenous administration C0” value in series [9] amounted to 1048 nM. For the same substance, in series [9], the “Intravenous administration MRT” value turned out to be 12.6 min. Also, in series [9], the “Intravenous administration T1/2” value is 18.0 min. For the same substance, the “Subcutaneous administration AUC” value in [9] was 961 nM·min. In series [9], the “Subcutaneous administration Cmax” value was found to be 19.1 nM. In addition, in [9], the “Subcutaneous administration MRT” value was 42.5 min. For the same substance, in series [9], the “Subcutaneous administration T1/2” value stood at 30.0 min. Also, the BA in [9] is on record as 17%.
